Test results as given in US20150125452A1, “COMBINATION TREATMENTS COMPRISING C-MET ANTAGONISTS AND B-RAF ANTAGONISTS” (GENENTECH, INC., priority 2011, published 2015).

Tested on: H3122 EML4-ALK translocated NSCLC cancer cell line
Experiment: Cell viability assay with TAE684 or crizotinib and HGF
Assay type: cell-based, Human
Conditions: crizotinib, 50 ng/mL HGF, 72 h
Method: Error bars represent mean+/−s.e.m.
Cell viability was assessed using the nucleic acid stain Syto 60 (Invitrogen). Cells (3000-5000 per well) were seeded into 96 well plates and allowed to adhere overnight. The next day, cells were treated with (or without) 50 ng/mL RTK ligand and concomitantly exposed to an increasing concentration range of the relevant kinase inhibitor. […] Cell viability was calculated by dividing the fluorescence obtained from the drug-treated cells by the fluorescence obtained from the control (no drug) treated cells.

C[C@@H](Oc1cc(-c2cnn(C3CCNCC3)c2)cnc1N)c1c(Cl)ccc(F)c1Cl [crizotinib, 3-[(1R)-1-(2,6-dichloro-3-fluorophenyl)ethoxy]-5-(1-piperidin-4-ylpyrazol-4-yl)pyridin-2-amine]
suppression of cell survival in presence of HGF: efficiently suppressed even in the presence of HGF
